Patent US4016176A, “Esters of 4-hydroxy-2,9-dioxatricyclo[4.3.1.0^3,7 ] decanes and processes for their production” (Kali-Chemie Pharma GmbH, priority 1973, dated 1977)

Tested on: white mice
Assay: muscle relaxant effect in white mice

Structure (SMILES): COC1OC2OC3(C)C(OC(=O)Nc4ccccc4)CC(C2C)C13 (stereo not drawn) [Example 17, 4β-(N-Phenylcarbamyloxy)-8-methoxy-3,10-dimethyl-2,9-dioxatricyclo[4.3.1.0^3,7]decane]
- muscle relaxant effect (in words): effective as a muscle relaxant (similar to the action of phenobarbital)
